Tb PFK inh: T. brucei PFK enzyme inhibition. AID 485367. T. brucei PFK, ADP-Glo luminescence. Potency, µM (doses to about 57.5 µM), usual class: inhibitors. 330,000 compounds, 0.17% hits. O15648; further: nearly all actives have a fitted effect of over 60% in size
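Compounds were pin-transferred as a titration series up to 57 uM into substrate buffer (0.5 mM F6P, 0.1 mM ATP, pH 8.0), then 1.25 nM PFK was added and reactions ran 45 min before ADP-Glo detection.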
ELG1 DNA repair: inhibitors of ELG1-dependent DNA repair in HEK293T cells; HEK293T ELG1-luciferase reporter, luminescence, 16 h; DNA damage induced by 5-fluorouridine; Potency, µM (top dose mostly 46.1 µM), hits mostly inhibitors; 330,000 compounds, 2.3% hits; AID 504467; further: nearly all actives have a fitted effect of over 55% in size
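HEK293T cells expressing luciferase-tagged ELG1 (2,000/well) received 5-Fluorouridine plus compound or DMSO for 16 hr at 37 °C. Luciferase was read by ONE-Glo luminescence after 30 min at room temperature.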
Rango complex inh: inhibitors of Rango-importin beta complex formation. Q14974. Rango CFP/YFP FRET sensor + importin beta, 45 min. Potency, µM (top dose mostly 92.2 µM). 340,000 compounds, 0.031% hits; calls by dose curve; further: nearly all actives have a fitted effect of over 15% in size
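FRET biosensor (snurportin 1 IBB flanked by EYFP and cerulean), 50 nM, with compound 5 min, then 0.125 microM importin beta in PBS, 1 mM DTT, 0.02% Tween-20, 0.1% BSA. CFP/YFP ratio read after 45 min at room temperature; pre-read flags interference.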
PGK inhibitor: inhibitors of T. brucei phosphoglycerate kinase; PGK/GAPDH coupled, Kinase-Glo luminescence, 60 min; AID 602233; Potency, µM (top dose mostly 57.5 µM), hits mostly inhibitors; P07378; 380,000 compounds, 0.043% hits; further: nearly all actives have a fitted effect of over 60% in size
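Recombinant glycosomal PGK reaction used 1,3-bisphosphoglycerate generated in-well by GAPDH (100nM final) in 100mM TEA pH 7.6, 5mM MgCl2, 0.01% Tween-20. After 60 minutes at room temperature, ATP was read by Kinase-Glo Plus luminescence end-point.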
Rango dissoc inh: prevents RanGTP from dissociating the Rango-importin beta complex. Biochemical FRET Rango-importin beta, RanGTP-induced dissociation. Potency, µM (top dose mostly 46.1 µM). 340,000 compounds, 0.071% hits. AID 540253; calls by dose curve; further: nearly all actives have a fitted effect of over 45% in size
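Rango (0.1 uM)–importin beta (0.25 uM) complex; RanGTP-RCC1 trigger; 45 min RT; CFP/YFP FRET read.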
PKM2 activator: activators of human pyruvate kinase M2; P14618; purified PKM2, Kinase-Glo ATP luminescence, activation; response scale: 0% is enzyme alone, no compound; Potency, µM (series often up to 57.5 µM), actives largely listed as activators; 260,000 compounds, 0.34% hits; further: nearly all actives have a fitted effect of over 55% in size
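Kinase-Glo luminescence reports ATP generated from ADP (0.1 mM) and PEP (0.5 mM) by purified hPK-M2 after 1 h at room temperature, pH 7.2 imidazole buffer; intermediate enzyme activity allows detecting inhibitors and activators.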
Hits are given with their value; 0 = inactive; ? = inconclusive; - = no result given. Most compounds without a hit are left out; they make up all but 2.4% or so of the library. Unless noted, the call rests on the fitted dose curve; in most records, active means well fitted curve in the direction sought with a large enough effect; inconclusive means small, poorly fitted or top-dose-only effect, or another doubt; inactive means no such curve, though single readings can be large; an effect the other way counts as inactive or inconclusive.

SMILES | Tb PFK inh | ELG1 DNA repair | Rango complex inh | PGK inhibitor | Rango dissoc inh | PKM2 activator
COc1cc(-c2nc(C(=O)NC3CCCCC3)cc3c2[nH]c2ccccc23)cc(OC)c1OC | 0 | 5.8µM | 0 | 0 | 0 | 0
COC(=O)C1CCN(S(=O)(=O)c2cc3c4c(c2)CC(=O)N4CCC3)CC1 | - | - | - | 0 | - | -
Cc1cc(-c2nnc(CCC(=O)N(C)CCc3ccccc3)o2)no1 | 0 | ? | 0 | 0 | 0 | 0
Cc1cccc(Cc2nnc(CCC(=O)N(C)CCc3ccccc3)o2)c1 | 0 | ? | 21µM | 0 | 0 | 0
Cc1ccccc1NS(=O)(=O)c1cc2c(cc1C)NC(=O)CO2 | 0 | 0 | 0 | 0 | 0 | 5.6µM
COc1ccc(NS(=O)(=O)c2cc3c(cc2C)NC(=O)CO3)c(OC)c1 | 0 | 0 | 0 | 0 | 0 | 0
Cc1ccc(CNC(=O)c2cc3c(-c4ccc(Cl)cc4)nn(C)c3s2)o1 | 0 | 16µM | 0 | 0 | 0 | 0
O=C1/C(=C/c2cccnc2)CCC/C1=C\c1cccnc1 | 0 | 4.1µM | 0 | 0 | 0 | 0
CCC1C/C(=C\c2cccnc2)C(=O)/C(=C/c2cccnc2)C1 (stereo not drawn) | 0 | 2.6µM | 0 | 0 | 0 | 0
CN(Cc1ccccc1)C(=O)c1cc2c(s1)-c1ccc(Cl)cc1SC2 | - | - | - | 0 | - | -
CN(CC(=O)Nc1cc(C(F)(F)F)ccc1-n1cncn1)Cc1nc2ccccc2c(=O)[nH]1 | - | - | 0 | 0 | 0 | -
CCN(CC(=O)Nc1cc(Cl)ccc1-n1cncn1)Cc1nc2ccccc2c(=O)[nH]1 | 0 | 8.2µM | 0 | 0 | 0 | -
Cc1cccc(NC(=O)CS(=O)(=O)c2c[nH]c3ccccc23)c1C | 0 | 0 | 0 | 0 | 0 | 25µM
Cn1c2c(c(=O)n(C)c1=O)C(C(F)(F)F)(C(F)(F)F)N=C(c1ccc(Cl)cc1)N2 | 0 | 0.65µM | 0 | 0 | 0 | 0
CCOc1ccc2oc(=O)cc(CN3CCN(C(=O)c4cccc(F)c4)CC3)c2c1 | - | - | - | 0 | - | -
CCN1CCN(C(=O)c2ccc(N3CC4CC(C3)c3cccc(=O)n3C4)c(NC(=O)c3cc(OC)cc(OC)c3)c2)CC1 (stereo not drawn) | 0 | 0 | 0 | 0 | 0 | -
Cc1cccc2c(=O)c(-c3ccc4c(c3)OCO4)c(NC(=O)c3ccco3)oc12 | 0 | 10µM | 0 | 0 | 0 | -
Cc1cccc(-c2c(NC(=O)c3ccco3)oc3c(C)cccc3c2=O)c1 | 0 | 0 | 0 | 0 | 0 | -
Cn1c2cc(B(O)O)sc2c2cnn(Cc3c(F)cccc3F)c(=O)c21 | 0 | - | - | - | - | -
CCn1c(C)c(C)c2cc(C(=O)NCCc3ccco3)ccc21 | 0 | 0 | 0 | 0 | 0 | 28µM
Cc1c(C)n(C)c2ccc(C(=O)NCCc3ccco3)cc12 | 0 | 0 | 0 | 0 | 0 | -
O=CN/C=C/c1cc(O)ccc1O | 30µM | 0 | 0 | 0 | 0 | 0
O=Cc1ccc(O)cc1O | 0 | 0 | 0 | 0 | 0 | 0
CCN(CC)S(=O)(=O)c1ccc(-c2ccc(S(=O)(=O)N(CC)CC)cc2)cc1 | 0 | 6.5µM | 0 | 0 | 0 | 0
O=[N+]([O-])c1ccc(NCCCNS(=O)(=O)c2ccc(Cl)cc2)c(Cl)c1 | 0 | 0 | 0 | 0 | 0 | 14µM
SMILES | Tb PFK inh | ELG1 DNA repair | Rango complex inh | PGK inhibitor | Rango dissoc inh | PKM2 activator
CC(/C=C/c1ccc(O)cc1)=N/O | 0 | 23µM | 0 | 0 | 0 | 0
CC(/C=C/c1ccccc1)=N/O | 0 | 0 | 0 | 0 | 0 | 0
COc1ccc(CC(=O)Nc2cccc(-c3nnc(-c4ccccc4)o3)c2)cc1OC | 0 | 5µM | 0 | 0 | 0 | 0
Cc1ccc(OCC(=O)Nc2cccc(-c3nnc(-c4ccccc4)o3)c2)c(C)c1 | 0 | ? | ? | 0 | ? | 0
COc1ccc(CC(=O)Nc2nc(C)cs2)cc1OC | 0 | 16µM | 0 | 0 | 0 | 0
COc1ccc(CC(=O)Nc2cccc(-c3nnc(-c4cccc(C)c4)o3)c2)cc1OC | 0 | 2.9µM | 0 | 0 | 0 | 0
COc1ccc(CC(=O)Nc2cccc(-c3ccc4nncn4n3)c2)cc1OC | 0 | 7.3µM | 0 | 0 | 0 | 0
CCOc1cccc2cc(-c3nc4sc5c(c4c(=O)[nH]3)CCC(C)C5)c(=O)oc12 (stereo not drawn) | - | - | - | 0 | - | -
CCOC(=O)Cc1nnc(Nc2cc(C)ccc2C)c2ccccc12 | 0 | ? | 0 | 0 | 0 | 0
COc1ccc(CC(=O)Nc2cccc(-c3nnc(-c4ccc(C)cc4)o3)c2)cc1OC | 0 | 12µM | 0 | 0 | 0 | 0
COc1ccc(CC(=O)Nc2ccc(-c3nnc(-c4ccccc4)o3)cc2)cc1OC | 0 | ? | 0 | 0 | 0 | 0
COc1ccc(S(=O)(=O)N2CCCC(C(=O)Nc3cccnc3)C2)cc1Cl (stereo not drawn) | 0 | 23µM | 0 | 0 | 0 | 0
COc1cc(NC(=O)C2CCCN(S(=O)(=O)c3ccc4c(c3)CCCN4C(C)=O)C2)cc(OC)c1 (stereo not drawn) | 0 | 9.2µM | 0 | 0 | 0 | -
COc1ccc(NC(=O)C2CCCN(S(=O)(=O)c3cccnc3)C2)cc1OC (stereo not drawn) | 0 | 0 | 0 | 0 | 0 | 0
COc1ccc(NC(=O)C2CCCN(S(=O)(=O)c3ccc4c(c3)CCCN4C(C)=O)C2)cc1 (stereo not drawn) | 0 | ? | 0 | 0 | 0 | -
Cc1ccccc1NC1=CC(=O)CC(C)(C)C1 | 0 | 0 | 0 | 0 | 0 | 0
CC1(C)CC(=O)C=C(NC2=CC3OC(c4ccccc4)OCC3OC2=O)C1 (stereo not drawn) | 0 | 13µM | 0 | 0 | 0 | 0
Cc1nnnn1/C(=C\c1ccccc1)C(=O)OCC(=O)NC(C)(C)C | 0 | 16µM | 0 | 0 | ? | 0
O=C1CC(c2cccc([N+](=O)[O-])c2)c2cc3c(cc2N1)CCC3 (stereo not drawn) | 0 | 16µM | 0 | 0 | 0 | 0
CCOC(=O)C1CCCN(C(=O)c2ccc3nc(-c4ccc(OC)c(OC)c4)c(-c4ccc(OC)c(OC)c4)nc3c2)C1 (stereo not drawn) | 0 | 1.8µM | ? | 0 | ? | -
CC(C)(C)NC(=O)NC(=O)CN1CCN(c2ncc(C(F)(F)F)cc2Cl)CC1 | 0 | 7.3µM | 0 | 0 | 0 | 0
NNC(=O)CN1CCN(c2ncc(C(F)(F)F)cc2Cl)CC1 | 0 | 0 | 0 | 0 | 0 | 0
CN(C)C(=O)CSc1ccc(S(=O)(=O)N2CCOCC2)cn1 | 0 | 0 | 0 | 0 | 0 | -
CCOC(=O)C(=CNc1cccnc1Oc1ccc(C)c2c1CCC2)C(=O)OCC | 0 | 15µM | 0 | 0 | 0 | 0
O=C(NCCc1ccc(Cl)cc1)c1ccc(CS(=O)(=O)c2ccc(Cl)cc2)o1 | - | - | - | 0 | - | -
COc1ccc(-n2c(-c3cccc(C)c3[N+](=O)[O-])n[nH]c2=S)cc1 | ? | 0 | 0 | 0 | 0 | 11µM

Assay outcomes: PubChem, National Center for Advancing Translational Sciences (NCATS)
